Experimental findings from US9618524B2, “Method, composition, isolation and identification of a plaque particle and related biomarker” (Plaxgen Inc., priority 2012, dated 2017) are described below.

Assay in all cases: Mass spectroscopy proteomics, semi-quantitative binding affinity of serum proteins (plaqueproteome, Table 2)
Common to all, as to conditions: higher number = stronger affinity

The target of assay [1] is T1, Abeta-42 plaque particles (Homo sapiens, UniProt P05067).
T1 construct: Abeta 1-42
The procedure: Next to isolate serum derived Abeta-42 plaque particles, the plasma or serum samples obtained from AD subjects were first centrifuged at 5,000 rpm for 5 min and the supernatants were transferred to new centrifuge tubes. Next, the supernatants were diluted in PBS to make 50% of the serum and plasma samples and used for incubation with Abeta-42 plaque oligomers/aggregates. Each assay was performed in 1 mL reaction (800 μL of 50% plasma or serum) and 200 μL (30 μg) of the Abeta-42 aggregates and the mixtures were incubated at 37° C. for 1 hr. To the mixture Thioflavin S dye (120 μg) was added and the sample was incubated for additional 30 min at 37° C. After the incubation, the mixture was directly used for sample acquisition using flow cytometer (FACS ARIA II, BD Biosciences, San Jose, Calif.). After initial detection of Abeta-42 plaque particles in the acquisition blot, gates were drawn in fluorescent dot blot to separately sort and isolate fluorescently labeled Abeta-42 particles.
For preparing trypsin digested peptide sequences, the isolated plaque particles were centrifuged at 10000 rpm for 5 min and the pellet containing plaque particles was resuspended in 100 μl PBS buffer. […]
(§1) All MS/MS samples were analyzed using Sequest (Thermo Fisher Scientific, San Jose, Calif., USA; version 1.0). […]

A further assay deals with Tau plaque particles. Set-up: species or system human. Here is the method:
To prepare derivatives of human Tau proteins oligomers/aggregates, 1 mg of Tau-45 Peptide (45-73 Exon 2/Insert 1 domain) was suspended in 1 mL of PBS and the sample was incubated at 37° C. for 2 hrs. For Tau-74 (74-102) (Exon 3/Insert 2 domain) preparation, 1 mg of Tau-74 was suspended in 1 mL of PBS and the sample was incubated at 37° C. for 2 hrs. Similarly for preparing Tau-275 (275-305) (Repeat 2 domain) 1 mg of the peptide was suspended in 1 mL of PBS and the sample was incubated at 37° C. for 2 hrs. After incubation, all the samples were centrifuged for 5 min. at 5000 rpm to remove precipitate, if any, and the supernatant containing oligomers/aggregates were used for in vitro amyloid plaque particles formation assay. For detecting Tau plaque particles, Thioflavin S (Ex/Em=430 nm/550 nm) amyloid binding fluorescent dye (10 μg) was used in the assay.
Next, to isolate Tau plaque particles, as performed for Abeta-42 and Abeta-28 plaque particles isolation, diluted serum samples were used for incubation separately with Tau-45, Tau-74 and Tau-275 oligomers/aggregates. Each assay was performed in 1 mL reaction (800 μL of 50% plasma or serum) and 200 μL (30 μg) of each Tau aggregates and the mixtures were incubated at 37° C. for 1 hr. […]
as §1

The subject of assay [2] is Low density cholesterol (Chl small) plaque particles. More on the design: species or system human. Here is the method: (§2) The goal was to isolate plaque particles synthesized in the bio-fluids in a relatively pure form to enable their subsequent use for identification of components that contribute to the plaque formation. In order to isolate cholesterol plaque particles, the plasma or serum samples obtained from atherosclerotic subjects were first centrifuged at 5,000 rpm for 5 min and the supernatants were transferred to new centrifuge tubes. Next, the supernatants were diluted in PBS to make 50% of the serum and used for incubation with cholesterol oligomers/aggregates. Each assay was performed in 1 mL reaction (800 μL of 50% plasma or serum) and 200 μL (30 μg) of the Cholesterol aggregates and the mixtures were incubated at 37° C. for 1 hr After the incubation, the mixture was directly used for sample acquisition using flow cytometer (FACS ARIA II, BD Biosciences, San Jose, Calif.). […] In order to isolate these fractions, three sets of gates were drawn in the acquisition blot to separately sort and isolate High density or high complex cholesterol particles, Low density or low complex cholesterol particles and both High and low density cholesterol particles together. The total number of cholesterol particles sorted and collected in separate tubes varied (5000 to 100,000) among serum samples of atherosclerosis subjects.
(§3) For preparing trypsin digested peptide sequences, the isolated plaque particles were centrifuged at 10000 rpm for 5 min and the pellet containing plaque particles was resuspended in 100 μl PBS buffer. Stock solutions of digestion buffer (Ammonium Biocarbonate 50 mM), reducing buffer (DDT 100 mM) and alkylation buffer (lodoaceamide 100 mM) were prepared and stored at −20° C. for up to two months. For trypsin digestion, 100 μl of each plaque particles (2000 of Abeta-42, cholesterol, Tau and alpha-synuclein) were precipitated using cold acetone −80° C. by adding 4X's the volume. The samples were placed on dry ice for 10 min with intermittent vortex. Next, the samples were centrifuged at 4° C. at 10000 G for 10 min. Top layer of acetone was carefully removed from the tube with care not to disturb the plaque particles pellet. The samples were speed-vac for 10 min to ensure all acetone has been boiled away. The plaque particles pellet were reconstituted with 15 μl 8M Urea 100 mM Ammonium bicarbonate stock and 20 μl protease max solution. The protease max solution (Promega, Madison, Wis.) was prepared from stock by adding 60 μl 50 mM Ammonium bicarbonate and used for 3 solution digests (20 μl each). […] The tubes were incubated at 55° C. for 30 minutes. […]
as §1

Assay [3] deals with High Density cholesterol (Chl Large) plaque particles. Set-up: species or system human. Here is the method: as §2, §3, §1
In assay [4] the target is T2, alpha-synuclein plaque particles (Homo sapiens, UniProt P37840).
T2 construct: 140 amino acids polypeptide
The procedure: To prepare oligomers/aggregates of human alpha-synuclein (140 amino acids polypeptide), 1 mg of the recombinant alpha-synuclein protein was suspended in 1 mL of PBS and the sample was incubated at 37° C. for 2 hrs. After incubation, all the samples were centrifuged for 5 min. at 5000 rpm to remove precipitate, if any, and the supernatant containing oligomers/aggregates were used in vitro plaque particles formation assay. For detecting alpha-synuclein plaque particles Thioflavin S (Ex/Em=430 nm/550 nm) amyloid binding fluorescent dye (10 μg) was used.
Similarly, to isolate alpha-synuclein plaque particles, diluted plasma or serum samples obtained from AD subjects were used for incubation with alpha-synuclein plaque oligomers/aggregates. Each assay was performed in 1 mL reaction (800 μL of 50% plasma or serum) and 200 μL (30 μg) of the alpha-synuclein aggregates and the mixtures were incubated at 37° C. for 1 hr. To the mixture Thioflavin S dye (120 μg) was added and the sample was incubated for additional 30 min at 37° C. After the incubation, the mixture was directly used for sample acquisition using flow cytometer (FACS ARIA II, BD Biosciences, San Jose, Calif.). […]
as §1

Turning to Apolipoprotein E, the “Semi-quantitative analysis of proteins binding to different plaque particles: Abeta-42” value in assay [1] is recorded as 11.

As to Serum albumin, in the assay with Tau plaque particles, the “Semi-quantitative analysis of proteins binding to different plaque particles: Tau” value is 281. The “Semi-quantitative analysis of proteins binding to different plaque particles: Chl small” value in assay [2] is listed as 320. In assay [3], the “Semi-quantitative analysis of proteins binding to different plaque particles: Chl Large” value is 340.

Regarding Coagulation factor X, the “Semi-quantitative analysis of proteins binding to different plaque particles: Abeta-42” value in assay [1] was found to be 0. Moreover, the “Semi-quantitative analysis of proteins binding to different plaque particles: Tau” value with Tau plaque particles amounted to 0. Also, the “Semi-quantitative analysis of proteins binding to different plaque particles: Chl small” value in assay [2] is on record as 1. In assay [3], the “Semi-quantitative analysis of proteins binding to different plaque particles: Chl Large” value was found to be 0. Further, the “Semi-quantitative analysis of proteins binding to different plaque particles: Synuclein” value in assay [4] stood at 0.
